Assay results published in patent US10710986B2, “PD-1/PD-L1 inhibitors” (Gilead Sciences, Inc., priority 2018, dated 2020).

By UniProt entry, the sequences of proteins in these tests, tags left out. Residues count along the entry.
UniProt Q9NZQ7, 19-238 limits assumed: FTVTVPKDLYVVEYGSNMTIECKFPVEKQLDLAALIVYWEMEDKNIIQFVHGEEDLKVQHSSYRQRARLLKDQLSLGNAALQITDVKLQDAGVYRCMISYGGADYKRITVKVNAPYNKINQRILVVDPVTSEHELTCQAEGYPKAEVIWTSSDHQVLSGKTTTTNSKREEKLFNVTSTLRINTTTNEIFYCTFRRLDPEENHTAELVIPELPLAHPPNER

Target: PD-1/PD-L1 (Homo sapiens (Human), UniProt Q9NZQ7)
Experiment: PD-1/PD-L1 biochemical protein-protein interaction assay (ALPHA)
Settings: read-out: IC50 PD-L1-PD1, 0.3 nM His tagged PD-L1, 2.5 nM biotinylated Fc-PD-1, 60 minutes at 25° C.

With `COc1nc(-c2cccc(-c3cccc(-c4cnc(CN5C[C@H](C)[C@@H](O)C5)c(OC)n4)c3Cl)c2Cl)cnc1CN1C[C@H](C)[C@@H](O)C1` the IC50 was 0.239 nM.
